Source: patent US20090196871A1, “USE OF 4-PYRIDYLMETHYLPHTHALAZINES FOR CANCER TREATMENT” (priority 2001, published 2009)

Tested on: metastatic colorectal cancer
Assay: Example 1: combination with oxaplatin/folinic acid/5-fluorouracil chemotherapy in patients
Type: in vivo, human
Conditions: co-administration of 1-(4-chloroanilino)-4-(4-pyridylmethyl)phthalazine
Protocol: 15 Patients with histologically confirmed metastatic colorectal cancer seven of which had previously received adjuvant chemotherapy are treated with a combination of 1-(4-chloro-anilino)-4-(4-pyridylmethyl)phthalazine and a chemotherapy regimen. The chemotherapy regimen is 85 mg/m^2 of oxaplatin on day 1, 200 mg/m^2 of folinic acid given as a 2 hour infusion on days 1 and 2, and S-fluorouracil administered as a bolus at a dose of 400 mg/m^2 followed by 600 mg/m^2 over 22 hours on days 1 and 2. The chemotherapy regimen is given every 14 days. […] The treatment is well-tolerated. […] Stable diseases are observed in 2 patients, minor responses in 3 patients and partial responses in 8 patients.

O=C1[O][Pt]2([NH][C@@H]3CCCC[C@H]3[NH]2)[O]C1=O [oxaplatin, reference compound]
pharmacokinetics of oxaplatin on co-administration: not altered
